Assay results as given in publication PMC3926802 (Molecular pharmaceutics, 2012).
≈ marks a conversion by molar mass, not a printed value.

Assay: Thermodynamic solubility in water for injection
Format: physicochemical
Conditions: water for injection (pH 6.4), 37 °C, 6 hours

- Solubility: 6 mM (≈ 2760 µg/mL)
SMILES: COc1c(N2CCNC(C)C2)c(F)cc2c(=O)c(C(=O)NCCCC(=O)O)cn(C3CC3)c12 (racemic) [CP-GFX, (±)-4-(1-cyclopropyl-6-fluoro-8-methoxy-7-(3-methylpiperazin-1-yl)-4-oxo-1,4-dihydroquinoline-3-carboxamido)butanoic acid]
